For 17 compounds, outcome and AC50 results are on record in PubChem BioAssay (EPA / NIEHS).

One may read the AC50 as the concentration at which the activity in the assay is half-maximal.

SMILES strings stand for the structures. Only a part is listed here, and it is no random draw. The source made the active and inactive calls. The calls were made as follows: active = hit-call score of the fitted dose curve at least 0.9, where 1 is the maximum; inactive = score below 0.9.

This assay is described as follows: ATG_Oct_MLP_CIS: Attagene CIS-FACTORIAL HepG2 Assay for human Octamer-Binding Transcription Factor (Oct) (AID 2282993). Particulars: HepG2 Attagene cis-factorial Oct reporter, mRNA; actives raise or lower the signal. As to the method: ATG_CIS is a cell-based, multiplexed-readout assay that uses HepG2, a human liver cell line, with measurements taken at 24 hours after chemical dosing in a 24-well plate.ATG_Oct_MLP_CIS is one of 52 assay component(s) measured or calculated from the ATG_CIS assay. It is designed to make measurements of mRNA induction, a form of inducible reporter, as detected with fluorescence intensity signals by Reverse transcription polymerase chain reaction (RT-PCR) and Capillary electrophoresis technology.Data from the assay component ATG_Oct_MLP_CIS was analyzed into 1 assay endpoint. This assay endpoint, ATG_Oct_MLP_CIS, was analyzed with bidirectional fitting relative to DMSO as the negative control and baseline of activity. Using a type of inducible reporter, measures of mRNA for gain or loss-of-signal activity can be used to understand the reporter gene at the transcription factor-level as they relate to the gene POU2F1. Furthermore, this assay endpoint can be referred to as a primary readout, because this assay has produced multiple assay endpoints where this one serves a reporter gene function. To generalize the intended target to other relatable targets, this assay endpoint is annotated to the dna binding intended target family, where the subfamily is POU domain protein.
Human liver HepG2 cells are transiently transfected with multiple reporter transcription units (MRTUs) in 6-well plates using FuGene 6 reagent (Roche; 3 ml FuGene/1 mg DNA). The MRTU constructs are regulated by a cis-regulating element (promoter). […] A major difference between the CIS and TRANS system is that in CIS activities of endogenous TFs are measured, whereas the TRANS assay evaluates changes in activities of exogenous, chimeric NR-Gal4 proteins. […] At the end of 24 hour incubation, total RNA was isolated using TriZol reagent (Invitrogen). The isolated RNA is then reverse-transcribed using oligo(dT) primer and Mo-MLV reverse transcriptase (Invitrogen) with DNAse I (Ambion) treatment for 30 min. The one-tenth of the produced cDNA was amplified by PCR using Taq DNA polymerase (Invitrogen) and two reporter sequence-specific primers. The PCR products were fluorescently labeled by primer extension with 6-arboxyfluorescein (6-FAM) 5'-labeled reporter sequence-specific primer (2 min at 95 C, 20 s at 68 C and 10 min at 72 C) and these products were digested with 5U of HpaI (New England Biolabs) for 2h at 37 C. The fragments were purified using Qiaquick PCR columns (Qiagen), analyzed on an ABI 3130xL genetic analyzer (Applied Biosystems) with peak positions identified by using a set of X-rhodamine (ROX)-labeled MapMarker1000 molecular weight standards (BioVentures). The raw capillary electrophoresis data was processed using Attagraph software (Attagene).
Turning to `CN(C(=O)Cc1cccc2occc12)[C@H]1CC[C@@]2(CCCO2)C[C@@H]1N1CCCC1`, the result was inactive. Take `O=C(Cl)Oc1ccccc1`: the result was inactive. As for `CCCCO[P+](=O)OCCCC`, the compound was classed as inactive. As for `N#CSc1ccc([N+](=O)[O-])cc1[N+](=O)[O-]`, the result was inactive. As for `CCCCC(CC)CO[P+](=O)OCC(CC)CCCC` (configuration not stated), the outcome was inactive. For `O=C(Cl)OCCOC(=O)Cl`, the compound was called inactive. Take `CC(C)CCCCCCCOP(OCCCCCCCC(C)C)Oc1ccccc1`: the outcome was inactive. Regarding `CC(C)OP(=S)(OC(C)C)SCCNS(=O)(=O)c1ccccc1`, the result was inactive. As for `CCCCOP(OCCCC)OCCCC`, the result was inactive. In the case of `O=C1C2CC=CCC2C(=O)N1SC(Cl)(Cl)C(Cl)Cl` (configuration not stated), the compound was called inactive. For `O=P(Cl)(Oc1ccccc1)Oc1ccccc1`, the compound was classed as inactive.

`Cc1cc([N+](=O)[O-])cc([N+](=O)[O-])c1O`: the AC50 is active: 100 µM.

With `O=[P+](Oc1ccccc1)Oc1ccccc1`, the compound was called inactive. Regarding `O=[p+]1oc2ccccc2c2ccccc21` (configuration not stated), the result was inactive. `O=[N+]([O-])c1ccc([N+](=O)[O-])cc1`: the concentration at half-maximal activity (AC50) is active: 62.9 µM. Take `O=[As]c1ccccc1` (configuration not stated): the half-maximal activity concentration (AC50) was active: 0.31 µM. For `ClP(Cl)c1ccccc1`, the compound was classed as inactive.
